We go through 103 compounds from PubChem BioAssay AID624168 (Sanford-Burnham Center for Chemical Genomics, 2012).

The structures appear in SMILES notation. The list shows a part of the results, in another mix than the full data. Activity calls are given as the source filed them.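 The calls were made as follows: active = activation of at least 8% versus controls, or a plate z-score of at least 8; inactive = the rest.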

The experiment can be described thus: activators of alpha-DG glycosylation, primary screen, uHTS, Pro5-aDG cells, AlphaScreen (AID 624168).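 Also: Pro5 are CHO cells carrying HIG-tagged alpha-DG that lacks glycosylation.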 Conditions: alpha-DG glycosylation AlphaScreen (IIH6), at 10 µM, stronger effect = higher value, 0% Pro5, 100% B10-LARGE cell signal. (In general: In Alpha technology, singlet oxygen from a donor bead excites a nearby acceptor bead.)
In the case of `O=P1(Nc2nc3ccc(Cl)cc3s2)COc2ccccc2O1` (stereo not drawn), the activation was inactive: 0%.

As for `CCOc1ccc(C2=NCC(CBr)S2)cc1` (stereo not drawn), the activation is inactive: 0.4%.

Take `CCc1cc(O)c([N+](=O)[O-])c(C)c1[N+](=O)[O-]`: the activation is inactive: -0.2%.

Take `CC(C)(C)C(=O)NC(Sc1ccccc1)C(Cl)(Cl)Cl` (stereo not drawn): the activation is inactive: 0.2%.

On to `N#C/C(=C\c1ccc(N(CCBr)CCBr)cc1)C(N)=O`, for which the activation was inactive: -0.1%.

`CC(=O)c1ccc(N2CC2c2ccncc2)cc1` (stereo not drawn): the activation was inactive: 0.3%.

For the compound `COC(=O)C1(C)COP(=O)(NCc2ccccc2)OC1` (stereo not drawn), the activation was inactive: -0.1%.

Take `Cc1ccccc1CN(C)C(=O)COC(=O)C(O)(c1ccccc1)c1ccccc1`: the activation was inactive: 1.9%.

Take `C[C@@H]1C=CCP(=O)(Oc2ccccc2)O1` (stereo partly drawn): the activation was inactive: -0.3%.

Turning to `C[C@H]1OP(=O)(Oc2ccccc2)C[C@@H]2O[C@@H]21` (stereo partly drawn), the activation was inactive: -0.2%.

In the case of `CC(=O)Nc1ccc([As](=O)(O)O)c(O)c1`, the activation was inactive: -0.1%.

Consider `CC(=O)Nc1ccc(Oc2c([N+](=O)[O-])cc([N+](=O)[O-])cc2[N+](=O)[O-])cc1`, for which the activation is inactive: 0%.

Consider `O=C(NC1CCS(=O)(=O)C1)NP(=S)(Oc1ccccc1)Oc1ccccc1` (stereo not drawn), for which the activation was inactive: 0.1%.

Consider `CCNC(=S)/N=C(\N)N[N+](=O)[O-]`, for which the activation was inactive: -0.4%.

In the case of `c1ccc(-c2nn[nH]n2)c(-c2nn[nH]n2)c1`, the activation is inactive: -0.4%.

With `Cc1ccc(NP(=O)(Oc2cccc(C)c2)Oc2cccc(C)c2)nc1`, the activation is inactive: 0%.

For the compound `O=P1(N(CCCl)CCCl)OCCC2CCCCN21` (stereo not drawn), the activation is inactive: 0%.

Turning to `COC(=O)c1cc2c(s1)N=C(c1ccccc1)N(C)P2(=O)N1CCOCC1` (stereo not drawn), the activation was inactive: -0.2%.

With `CC(=O)NC(SC(=S)N(CC(C)C)CC(C)C)C(Cl)(Cl)Cl` (stereo not drawn), the activation was inactive: -0.6%.

In the case of `Cc1ccc(OP(=O)(Nc2ccccn2)Oc2ccc(C)cc2)cc1`, the activation was inactive: 1.6%.

Turning to `O=C(OC1CN2CCC1CC2)c1ccccc1` (stereo not drawn), the activation was inactive: -0.1%.

On to `CCC(=O)N1C2C3N(C(=O)CC)C1C1N(C(=O)CC)C(C(N1C(=O)CC)N3C(=O)CC)N2C(=O)CC`, for which the activation is inactive: -0.4%.

As to `Cc1ccccc1OP(=O)(Nc1ccccn1)Oc1ccccc1C`, the activation is inactive: 0.3%.

In the case of `CC(NC(=O)COC(=O)C(O)(c1ccccc1)c1ccccc1)c1ccccc1` (stereo not drawn), the activation is inactive: 0%.

For the compound `CN(C)C(=O)Oc1noc2ccccc12`, the activation is inactive: 0.1%.

For `O=c1c2cc([N+](=O)[O-])ccc2[nH]c2c([N+](=O)[O-])cc([N+](=O)[O-])cc12`, the activation is inactive: -0.4%.

For `Nc1ccc(CCCCOc2ccccc2)cc1`, the activation is inactive: -0.1%.

As for `COc1ccc(N)c([N+](=O)[O-])c1[N+](=O)[O-]`, the activation is inactive: 0.2%.

Regarding `CN(C)C1(CNC(=O)c2ccc(Cl)c(S(N)(=O)=O)c2)CCCCC1`, the activation was inactive: -0.1%.

As for `O=P(Nc1ccccn1)(c1ccc(Br)cc1)c1ccc(Br)cc1`, the activation is inactive: 0.7%.

For the compound `O=P(Nc1nc2ccccc2s1)(c1ccccc1)c1ccccc1`, the activation was inactive: -0.1%.

Take `C[C@H]1OP(=O)(Oc2ccccc2)[C@H](O)[C@H](O)[C@H]1N=[N+]=[N-]` (stereo partly drawn): the activation is inactive: -0.2%.

On to `CC(=O)NC(SC(=S)N(C)C)C(Cl)(Cl)Cl` (stereo not drawn), for which the activation is inactive: -0.1%.

Turning to `O=[N+]([O-])c1ncn(CCn2cnc([N+](=O)[O-])n2)n1`, the activation is inactive: 0%.

In the case of `O=[N+]([O-])c1ccc(O)c(/C=N/Nc2ccc([N+](=O)[O-])cc2[N+](=O)[O-])c1`, the activation is inactive: -0.4%.

Regarding `O=[As](O)(c1ccccc1)c1ccc(O)cc1`, the activation is inactive: 0%.

For the compound `Nc1ccc([As](=O)(O)c2ccc([N+](=O)[O-])cc2)cc1`, the activation is inactive: 0.5%.

In the case of `C(Cc1nn[nH]n1)Cc1nn[nH]n1`, the activation is inactive: -0.1%.

Consider `O=C(OC1CN2CCC1CC2)c1cccc(Cl)c1` (stereo not drawn), for which the activation was inactive: -0.1%.

For `O=P(Nc1nccs1)(c1ccccc1)c1ccccc1`, the activation is inactive: -0.4%.

As to `CC(C)C(=O)NC(Sc1ccccc1)C(Cl)(Cl)Cl` (stereo not drawn), the activation is inactive: 0.2%.

With `c1nnnn1CCn1cnnn1`, the activation is inactive: -0.3%.

With `COc1ccc(C2=NCC(CBr)S2)cc1` (stereo not drawn), the activation is inactive: 0.8%.

As for `CC(=O)N1C2C3N(C(C)=O)C1C1N(C(C)=O)C(C(N1C(C)=O)N3C(C)=O)N2C(C)=O`, the activation was inactive: 0.1%.

As to `O=[N+]([O-])c1cccc2n[nH]nc12`, the activation is inactive: -0.1%.

Take `Cc1ccc(NP(=O)(Oc2ccccc2)Oc2ccccc2)nc1`: the activation is inactive: -0.1%.

Regarding `O=[N+]([O-])c1cc([N+](=O)[O-])c(CCNc2ccccc2)c([N+](=O)[O-])c1`, the activation is inactive: 1%.

`CCc1nc2c(n1)c1c(non1O)c1c2no[n+]1[O-]`: the activation is inactive: 0.2%.

`Nc1ccc([As](=O)(O)c2ccc(N)cc2)cc1`: the activation is inactive: 0%.

Regarding `C[N+]1=C2C=CC=CC=C2SC12C([N+](=O)[O-])=CC([N+](=O)[O-])=C[C-]2[N+](=O)[O-]` (stereo not drawn), the activation is inactive: -0.2%.

Regarding `CCN(/C(=N/P(=O)(N1CCOCC1)N1CCOCC1)N1CCOCC1)c1ccc(OC)cc1`, the activation was inactive: -0.3%.

Regarding `CC(C)=N/N=C(\N)N[N+](=O)[O-]`, the activation is inactive: 0%.

For the compound `CC(C)c1nc(Nc2ccccc2)n(P(=O)(N(C)C)N(C)C)n1`, the activation is inactive: 0.2%.

For `CN(C)C(=O)OCCc1n(C)cc[n+]1C`, the activation was inactive: -0.1%.

For the compound `c1cc(-c2nn[nH]n2)ccc1-c1nn[nH]n1`, the activation is inactive: 0%.

For the compound `CC1CCN(C(=O)Oc2c(Cl)cc(Cl)c3cccnc23)CC1`, the activation is inactive: -0.1%.

With `O=P1(N(CCCl)CCCl)OCCCS1` (stereo not drawn), the activation was inactive: 0.3%.

Regarding `O=C(Nc1cc([As](=O)(O)O)ccc1O)c1ccccc1`, the activation is inactive: -0.1%.

Take `CC(C)(C)C(=O)NC(Sc1ccncn1)C(Cl)(Cl)Cl` (stereo not drawn): the activation is inactive: 0.1%.

For the compound `O=[N+]([O-])c1ncn(CCn2ncnc2[N+](=O)[O-])n1`, the activation is inactive: 0.5%.

With `O=[N+]([O-])c1cccc(NC2=NCC(CBr)S2)c1` (stereo not drawn), the activation is inactive: -0.2%.

Take `COC(=O)C1(C)COP(=O)(Nc2ccccc2)OC1` (stereo not drawn): the activation was inactive: 0%.

On to `O=C(O)CNc1ccc([As](=O)(O)O)cc1`, for which the activation is inactive: -0.3%.

Regarding `O=C(O)c1ccccc1[As](=O)(O)O`, the activation was inactive: -0.2%.

For `CC(=O)Nc1ccc([As](=O)(O)O)cc1`, the activation is inactive: 0%.

As for `CCCC1OP(N)(=O)OCC1CC` (stereo not drawn), the activation was inactive: -0.1%.

As for `CN(C)P(=O)(N(C)C)n1c(Nc2ccccc2)nnc1-c1ccccc1`, the activation is inactive: 0.3%.

Regarding `O=P(Nc1nc2ccc(Cl)cc2s1)(c1ccccc1)c1ccccc1`, the activation was inactive: 0%.

Regarding `CCOP(=O)(Nc1ccccc1)OCC`, the activation was inactive: -0.1%.

On to `Cc1cc(SC(NC(=O)c2ccc(F)cc2)C(Cl)(Cl)Cl)ncn1` (stereo not drawn), for which the activation is inactive: -0.2%.

Turning to `CN(C(=O)Cc1ccc(Cl)c(Cl)c1)[C@H]1CCCC[C@@H]1N1CCCC1`, the activation is inactive: -0.4%.

On to `Cc1ccc(NP(=O)(Oc2ccccc2F)Oc2ccccc2F)nc1`, for which the activation was inactive: -0.1%.

As to `CCN(N=Nc1nonc1N)c1nonc1N`, the activation is inactive: 0.1%.

For the compound `Nc1cccc2ccc([As](=O)(O)O)cc12`, the activation was inactive: 1.1%.

As for `NC(=O)c1cc([N+](=O)[O-])cc([N+](=O)[O-])c1N`, the activation was inactive: 0.3%.

With `CN(C(=O)Cc1ccc(Cl)c(Cl)c1)[C@H]1CCCC[C@H]1N1CCCC1`, the activation was inactive: 0.3%.

With `Cc1ccc(N/C(=N/P(=O)(N2CCOCC2)N2CCOCC2)N2CCOCC2)cc1`, the activation is inactive: -0.1%.

As for `COc1ccccc1OP(=O)(Nc1ccc(C)cn1)Oc1ccccc1OC`, the activation is inactive: -0.2%.

On to `Cc1ccc(OP(=O)(Nc2nccs2)Oc2ccc(C)cc2)cc1`, for which the activation is inactive: 0.1%.

Consider `Clc1ccc(Cl)c(NC2=NCC(CBr)S2)c1` (stereo not drawn), for which the activation is inactive: -0.1%.

In the case of `CN1CCCC(OC(=O)C(c2ccccc2)c2ccccc2)C1` (stereo not drawn), the activation was inactive: 0.2%.

Regarding `CC(C)CC(=O)NC(Sc1ccc(Cl)cc1)C(Cl)(Cl)Cl` (stereo not drawn), the activation is inactive: -0.1%.

As to `Nc1cc(N)c2nonc2c1[N+](=O)[O-]`, the activation was inactive: -0.1%.

Consider `Oc1ccccc1CNc1ccccn1`, for which the activation was inactive: 0.1%.

Regarding `O=C(NC(Sc1ccncn1)C(Cl)(Cl)Cl)c1ccccc1` (stereo not drawn), the activation is inactive: -0.2%.

`O=[N+]([O-])C1C(O)C(O)C([N+](=O)[O-])C(O)C1O` (stereo not drawn): the activation was inactive: -0.2%.

Turning to `O=C(OC1CN2CCC1CC2)C12CC3CC(CC(C3)C1)C2` (stereo not drawn), the activation was inactive: -0.2%.

Consider `Cc1cc(=O)[nH]c(N[N+](=O)[O-])n1`, for which the activation is inactive: 0.1%.

Regarding `Cc1c2c(nc3ccccc13)SC(C(Cl)Cl)C2` (stereo not drawn), the activation is inactive: 0%.

As for `COc1ccc2nc(NP(=O)(c3ccccc3)c3ccccc3)sc2c1`, the activation is inactive: -0.2%.

Regarding `COc1cc(I)ccc1[As](=O)(O)O`, the activation was inactive: -0.2%.

As to `O=P1(N(CCCl)CCCl)OCCCN1CCCl` (stereo not drawn), the activation is inactive: 0.1%.

In the case of `O=P1(N(CCCl)CCCl)Nc2ccccc2N1`, the activation is inactive: -0.4%.

Take `COc1ccc(N/C(=N/P(=O)(N2CCOCC2)N2CCOCC2)N2CCOCC2)cc1`: the activation is inactive: -0.1%.

With `O=[N+]([O-])c1cc(Oc2ccc([N+](=O)[O-])cc2C(F)(F)F)cc([N+](=O)[O-])c1`, the activation is inactive: 1.2%.

In the case of `C[As](=O)(O)c1cccc(C(=O)O)c1`, the activation is inactive: 0.1%.

`O=[As](O)(c1ccc(O)cc1)c1ccccc1O`: the activation was inactive: -0.1%.

For the compound `COc1cc(C(=O)NCC2(N3CCOCC3)CCCCC2)ccc1OCC(C)C`, the activation is inactive: -0.1%.

Take `O=[N+]([O-])c1ccc(-c2cc([N+](=O)[O-])c(O)c([N+](=O)[O-])c2)cc1`: the activation is inactive: 0.3%.

Take `Cc1ccc2nc3c(c(C)c2c1)CC(C(Cl)Cl)S3` (stereo not drawn): the activation was inactive: 0.4%.

For `Cc1ccc(OP(=O)(Nc2ccc([N+](=O)[O-])cn2)Oc2ccc(C)cc2)cc1`, the activation is inactive: 0.3%.

`[N-]=[N+]=NC1CCCCC1NC(=O)c1cc([N+](=O)[O-])cc([N+](=O)[O-])c1` (stereo not drawn): the activation was inactive: 0.1%.

For the compound `CC(C)c1ccc(OP(=O)(Nc2ccccn2)Oc2ccccc2F)cc1` (stereo not drawn), the activation is inactive: 0.5%.
